From US20120263714A1, “SUBSTITUTED HALOPHENOXYBENZAMIDE DERIVATIVES” (BAYER INTELLECTUAL PROPERTY GMBH, priority 2009, published 2012)

Test: Distribution between blood and plasma, blood/plasma ratio (Assay 7)
Assay type: in vitro ADME, human
Settings: statement in text on the blood/plasma data

SMILES: NC(=O)c1c(Oc2cccc(CNS(N)(=O)=O)c2)cc(F)c(F)c1Nc1ccc(I)cc1F [Example 1, 3,4-difluoro-2-[(2-fluoro-4-iodophenyl)amino]-6-{3-[(sulfamoylamino)methyl]phenoxy}benzamide]
- accumulation in human blood cells: does not show accumulation in human blood cells
